In the test the test system is female Lewis rat. Particulars: in vivo.

Molecules are shown by their SMILES.

For `CO[C@@H](C)c1c(NC(=O)Nc2ccnc(C(F)(F)F)c2)cnc2cc(Cl)nn12` [MLT-943], the histological scores result is “significantly reduced” and the paw swelling entry was “significantly reduced”.
